The values below are quoted from earlier work in US11975105B2 (EMPROS PHARMA AB, priority 2014, dated 2024).

Each structure is given as a SMILES string. Read-outs that look alike come from different tables or passages of the source.

For this series the following is noted: cited from earlier work.

Take `C[C@H]1O[C@H](O[C@H]2[C@H](O)[C@@H](O)[C@@H](O[C@H]3[C@H](O)[C@@H](O)C(O)O[C@@H]3CO)O[C@@H]2CO)[C@H](O)[C@@H](O)[C@@H]1N[C@H]1C=C(CO)[C@@H](O)[C@H](O)[C@H]1O` (stereo partly drawn) [acarbose, O-4,6-Dideoxy-4-[[(1 S,4R,5S,6S)-4,5,6-trihydroxy-3-(hydroxymethyl)cyclohex-2-enyl]amino]-α-D-glucopyranosyl-(1→4)-O-α-D-gluco-pyranosyl-(1→4)-D-glucopyranose]: the “fraction of the dose absorbed” value by setting is: (in vivo, po) below 5%; (oral administration) “less than 5%”.
